# Marks after values point to notes of the source that are not given here.
# Target: T1, glucocorticoid receptors (Homo sapiens, UniProt P04150)
# T1 construct: host or cells: Human HeLa cells
# T1 sequence (P04150 1-777): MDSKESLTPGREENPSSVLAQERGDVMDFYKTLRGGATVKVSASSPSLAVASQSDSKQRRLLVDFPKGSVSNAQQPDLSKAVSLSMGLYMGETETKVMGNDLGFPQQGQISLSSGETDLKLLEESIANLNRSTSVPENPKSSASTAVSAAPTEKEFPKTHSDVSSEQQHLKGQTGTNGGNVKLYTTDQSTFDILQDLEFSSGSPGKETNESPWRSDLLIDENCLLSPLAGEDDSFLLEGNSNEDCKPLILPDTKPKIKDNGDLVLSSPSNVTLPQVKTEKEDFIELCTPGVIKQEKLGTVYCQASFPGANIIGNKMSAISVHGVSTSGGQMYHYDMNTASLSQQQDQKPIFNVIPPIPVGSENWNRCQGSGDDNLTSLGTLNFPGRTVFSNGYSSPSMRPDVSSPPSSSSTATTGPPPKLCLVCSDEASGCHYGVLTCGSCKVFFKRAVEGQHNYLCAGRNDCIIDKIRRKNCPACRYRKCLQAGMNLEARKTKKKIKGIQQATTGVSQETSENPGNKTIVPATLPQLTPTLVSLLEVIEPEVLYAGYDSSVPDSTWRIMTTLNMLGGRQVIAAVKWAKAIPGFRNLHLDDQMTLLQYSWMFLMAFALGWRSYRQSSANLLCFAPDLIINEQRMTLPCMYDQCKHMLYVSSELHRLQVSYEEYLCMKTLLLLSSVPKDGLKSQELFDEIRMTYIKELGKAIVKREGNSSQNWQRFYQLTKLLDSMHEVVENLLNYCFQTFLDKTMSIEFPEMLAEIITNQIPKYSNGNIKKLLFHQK
# Experiment: Glucocorticoid receptor binding assay ([3H]dexamethasone radioligand)
# Conditions: % inhibition at 10 nM, HeLa cells transfected with glucocorticoid receptors
# Experimental: The steroid receptor binding assay were performed by MDS Pharma Services at their Taipei (Taiwan) pharmacology laboratory.
# The activity of test compounds on glucocorticoid receptor was assessed using radioligand binding assays. […] Free [^3H]dexamethasone was removed from the medium by centrifugation and concentration of receptor bound ligand was determined in the supernatant by liquid scintillation counting.
# The % inhibition was evaluated using a single concentration of test compound and the corresponding radiolabeled ligand. Results are presented as the percent inhibition of specific binding. The values are average of duplicate determinations for each concentration.
smiles,measurement,value
"CCC(=O)O[C@]1(C(=O)SCF)[C@H](C)C[C@H]2[C@@H]3C[C@H](F)C4=CC(=O)C=C[C@]4(C)[C@@]3(F)[C@@H](O)C[C@@]21C [Fluticasone propionate, (S)-fluoromethyl 6α,9α-difluoro-11β-hydroxy-16α-methyl-17α-propionyloxy-3-oxoandrosta-1,4-diene-17β-carbothioate, reference compound]",Glucocorticoid receptor binding % inhibition,88^b %
